Only a part is listed here, and it is no random draw. Records with an inconclusive call do not appear. The source made the active and inactive calls. Rule for the calls, unless noted: active = hit-call score of the fitted dose curve at least 0.9, where 1 is the maximum; inactive = score below 0.9.
What was measured:
[1] = read-out: Tumor necrosis factor receptor 1 (TNFRSF1A), TNFRSF1A (gene 7132); assay: LTEA_HepaRG_TNFRSF1A: Life Technologies and Expression Analysis (LTEA) Assay for Tumor necrosis factor receptor 1 (TNFRSF1A) using HepaRG (AID 2283535); conditions: actives raise or lower the signal; mRNA level, 48 h
Method in brief: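 Expression of TNFRSF1A in human HepaRG liver cells was measured by qRT-PCR 48 h after chemical dosing (maximum 100 uM). Bidirectional curve fitting used 0.5% DMSO as baseline.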

Protein sequences, listed by entry. Tags and fused reporters are not part of them.
UniProt P04637, whole entry: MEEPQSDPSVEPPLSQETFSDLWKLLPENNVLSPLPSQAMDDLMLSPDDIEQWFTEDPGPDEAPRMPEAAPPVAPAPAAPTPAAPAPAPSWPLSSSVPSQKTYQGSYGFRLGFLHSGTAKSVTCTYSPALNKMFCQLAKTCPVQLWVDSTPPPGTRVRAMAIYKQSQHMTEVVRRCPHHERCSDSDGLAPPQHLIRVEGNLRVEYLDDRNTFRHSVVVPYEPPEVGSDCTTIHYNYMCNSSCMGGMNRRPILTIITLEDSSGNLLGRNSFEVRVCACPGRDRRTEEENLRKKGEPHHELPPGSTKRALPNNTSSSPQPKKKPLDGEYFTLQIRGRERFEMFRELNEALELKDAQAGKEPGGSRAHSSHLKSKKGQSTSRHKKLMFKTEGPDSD

[2] = read-out: Thyroid Hormone Responsive (THRSP), THRSP (gene 7069); assay: LTEA_HepaRG_THRSP: Life Technologies and Expression Analysis (LTEA) Assay for Thyroid Hormone Responsive (THRSP) using HepaRG (AID 2283536); conditions: actives raise or lower the signal; mRNA level, 48 h
Method in brief: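 qRT-PCR read-out (Fluidigm TaqMan), housekeeping-normalized (ACTB/GAPDH/POLR2A). HepaRG, 48 h chemical exposure, 8-pt half-log series from 100 uM in 0.5% DMSO, duplicates. Bidirectional curve fit vs 0.5% DMSO baseline.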

[3] = read-out: Cellular tumor antigen p53 (Homo sapiens) (UniProt P04637); assay: LTEA_HepaRG_TP53: Life Technologies and Expression Analysis (LTEA) Assay for Tumor Protein P53 (TP53) using HepaRG (AID 2283537); conditions: actives raise or lower the signal; mRNA level, 48 h
Method in brief: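 Differentiated HepaRG cells in serum-free induction medium exposed 48 h in duplicate to 8 half-log concentrations, top 100 uM, 0.5% DMSO. TP53 mRNA by TaqMan qRT-PCR (Fluidigm), normalized to ACTB, GAPDH, POLR2A; fitted bidirectionally versus DMSO.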

[4] = read-out: UDP glucuronosyltransferase (UGT1A1), UGT1A1 (gene 54658); assay: LTEA_HepaRG_UGT1A1: Life Technologies and Expression Analysis (LTEA) Assay for UDP glucuronosyltransferase (UGT1A1) using HepaRG (AID 2283538); conditions: actives raise or lower the signal; mRNA level, 48 h
Method in brief: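 mRNA induction or loss of UGT1A1, by TaqMan qRT-PCR, in duplicate HepaRG wells after 48 h exposure to half-log dilutions topping at 100 uM; DMSO (0.5%) served as baseline.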

[5] = read-out: UDP glucuronosyltransferase (UGT1A6), UGT1A6 (gene 54578); assay: LTEA_HepaRG_UGT1A6: Life Technologies and Expression Analysis (LTEA) Assay for UDP glucuronosyltransferase (UGT1A6) using HepaRG (AID 2283539); conditions: actives raise or lower the signal; mRNA level, 48 h
Method in brief: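 Endpoint is UGT1A6 transcript induction or loss in a human liver cell line, quantified by TaqMan qRT-PCR 48 h after dosing. Concentrations ran from 100 uM downward in half-log steps in 0.5% DMSO; activity was fitted in both directions versus vehicle.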

[6] = read-out: X-box binding protein 1 (XBP1), XBP1 (gene 7494); assay: LTEA_HepaRG_XBP1: Life Technologies and Expression Analysis (LTEA) Assay for X-box binding protein 1 (XBP1) using HepaRG (AID 2283540); conditions: actives raise or lower the signal; mRNA level, 48 h
Method in brief: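 Human HepaRG monolayers receive test chemical for 48 h across an eight-point half-log series starting at 100 uM. XBP1 mRNA gain or loss is scored against DMSO by qRT-PCR.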

[7] = LTEA_HepaRG_LDH_cytotoxicity: Cytotoxicity Assessment in the Life Technologies and Expression Analysis (LTEA) Assay (AID 2283563; active = hit-call score of the fitted dose curve at least 0.9, where 1 is the maximum)
Method in brief: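 Human HepaRG hepatic cells are treated with test chemicals for 48 h at up to 100 uM in 0.5% DMSO. Cytotoxicity is scored from medium LDH against the vehicle control.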

[8] = Tanguay_ZF_120hpf_YSE_legacy: (Legacy) Oregon State University Tanguay Lab 120 Hour Post-fertilization zebrafish Assay for Yolk Sac Edema (AID 2283634; active = hit-call score of the fitted dose curve at least 0.9, where 1 is the maximum)
Method in brief: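 Readout: presence or absence of yolk sac edema at 120 hpf, fitted upward against DMSO controls. Exposure ran statically from 6 hpf in dechorionated embryos kept at 28C.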

[9] = ATG_XTT_Cytotoxicity: Cytotoxicity Assessment in the Attagene TRANS-FACTORIAL HepG2 Assay (AID 2283584; active = hit-call score of the fitted dose curve at least 0.9, where 1 is the maximum)
Method in brief: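 Transfect HepG2 with GAL4-UAS reporter units, dose compound, incubate 24 h, then measure viable cell number by XTT. Fit concentration response against DMSO baseline.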

[10] = Tanguay_ZF_120hpf_MORT_legacy: (Legacy) Oregon State University Tanguay Lab 120 Hour Post-fertilization zebrafish Assay for Mortality (AID 2283633; active = hit-call score of the fitted dose curve at least 0.9, where 1 is the maximum;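 for AC50: fitted as increase in binary mortality versus DMSO negative control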)
Method in brief: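 Mortality endpoint from a multiplexed whole-embryo zebrafish screen. Dechorionated wild-type embryos received compound at 6 hpf and remained under static exposure at 28C until 120 hpf, with death noted as a present/absent call.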

With `O=[N+]([O-])c1cccc([N+](=O)[O-])c1` as the compound, how does the outcome [1] read?
Its outcome is “inactive”.

What about the outcome [2] of the same compound?
Its outcome is “inactive”.

And the outcome [3]?
Its outcome is “inactive”.

What about the outcome [4] of the same compound?
Its outcome is “inactive”.

What about the outcome [5] of the same compound?
Its outcome is “inactive”.

And the outcome [6]?
Its outcome is “inactive”.

What about the outcome [7] of the same compound?
The outcome was “inactive”.

What about the outcome [8] of the same compound?
Its outcome is “inactive”.

For `Cc1cccc([N+](=O)[O-])c1[N+](=O)[O-]`, which outcome [1] is on record?
The outcome was “inactive”.

What about the outcome [2] of the same compound?
Its outcome is “inactive”.

And the outcome [3]?
Its outcome is “inactive”.

And the outcome [4]?
The outcome was “inactive”.

And the outcome [5]?
The outcome was “inactive”.

What about the outcome [6] of the same compound?
Its outcome is “inactive”.

And the outcome [7]?
The outcome was “inactive”.

What about the outcome [9] of the same compound?
The outcome was “inactive”.

What about the AC50 [10] of the same compound?
The AC50 was active: 26.5 µM.

What about the outcome [8] of the same compound?
The outcome was “inactive”.

For `O=[N+]([O-])OCC(CO[N+](=O)[O-])(CO[N+](=O)[O-])CO[N+](=O)[O-]`, which outcome [9] is on record?
The outcome was “inactive”.

For `Cc1c([N+](=O)[O-])cccc1[N+](=O)[O-]`, which outcome [1] is on record?
The outcome was “inactive”.

And the outcome [2]?
Its outcome is “inactive”.

And the outcome [4]?
The outcome was “inactive”.

What about the outcome [5] of the same compound?
Its outcome is “inactive”.

What about the outcome [6] of the same compound?
The outcome was “inactive”.

And the outcome [7]?
Its outcome is “inactive”.

What about the outcome [9] of the same compound?
The outcome was “inactive”.

What about the outcome [10] of the same compound?
Its outcome is “inactive”.

And the outcome [8]?
The outcome was “inactive”.

For `Cc1ccc([N+](=O)[O-])c([N+](=O)[O-])c1`, which outcome [9] is on record?
The outcome was “inactive”.

Which outcome [9] does the source give for `N#CBr` here?
The outcome was “inactive”.

For `CN(C)CCCl`, which outcome [9] is on record?
The outcome was “inactive”.

Which outcome [9] does the source give for `COc1ccc([N+](=O)[O-])cc1[N+](=O)[O-]` here?
The outcome was “inactive”.

Which outcome [9] does the source give for `COP(C)(=O)OC` here?
Its outcome is “inactive”.

With `CC(C)OP(C)(=O)OC(C)C` as the compound, how does the outcome [1] read?
Its outcome is “inactive”.

What about the outcome [2] of the same compound?
Its outcome is “inactive”.

What about the outcome [3] of the same compound?
The outcome was “inactive”.

What about the outcome [4] of the same compound?
Its outcome is “inactive”.

And the outcome [5]?
Its outcome is “inactive”.

And the outcome [6]?
The outcome was “inactive”.

And the outcome [7]?
Its outcome is “inactive”.

And the outcome [9]?
Its outcome is “inactive”.

What about the outcome [10] of the same compound?
Its outcome is “inactive”.

And the outcome [8]?
Its outcome is “inactive”.

What does the source list for `Cc1ccc([N+](=O)[O-])cc1[N+](=O)[O-]`?
outcome [1]: inactive; outcome [2]: inactive; outcome [3]: inactive; AC50 [4]: active: 50 µM; outcome [5]: inactive; outcome [6]: inactive; outcome [7]: inactive; outcome [9]: inactive; outcome [10]: inactive; outcome [8]: inactive

Source: PubChem BioAssay (EPA / NIEHS)
